For this assay, the system named is MCF-7 SPS cells. Kind of assay: LOPAC compounds tested on MCF-7 SPS cells (Table 2).

On to `O=[N+]([O-])c1ccc(-c2nc(-c3ccc(F)cc3)c(-c3ccncc3)[nH]2)cc1` [PD 169316, 4-(4-Fluorophenyl)-2-(4-nitrophenyl)-5-(4-pyridyl)-1H-imidazole], for which the “Cancer cell survival (%)” value is recorded as 8.8%.

Values taken from patent US20130261142A1, “COMPOUNDS USED FOR TREATING CANCER AND THE USE THEREOF” (priority 2010, published 2013).
